Reference: patent US12473298B2, “Amide compounds, preparation method therefor, and use thereof in the medical field” (Shanghai Synergy Pharmaceutical Sciences Co., Ltd., priority 2019, dated 2025)
Read-outs that look alike come from different tables or passages of the source.

Tests used:
[1] = system: human diffuse large B-cell lymphoma cells (Karpas 422 cell); experiment: Karpas 422 cell proliferation, Calcein AM staining; format: cell-based; settings: data of 14th day, read-out: Karpas422 Proliferation IC50 Nanomoles per Liter
[2] = system: human diffuse large B-cell lymphoma cells (WSU-DLCL2 cell); experiment: Pharmacodynamic experiment, WSU-DLCL2 transplanted tumor model in mice; format: in vivo, mice (CB17/SCID)
[3] = system: human diffuse large B-cell lymphoma cells (WSU-DLCL2 cell); experiment: Pharmacodynamic experiment in combination with other drugs, WSU-DLCL2 transplanted tumor model in mice; format: in vivo, mice (CB17/SCID)
[4] = 50 mg/kg, intraperitoneally, once a day for 21 days

IC50 ([1]; Homo sapiens, KARPAS-422) [nM]	SMILES	IC50 [1] [nM]	other results
4.26	CCN(c1cc(-c2ccc3c(c2)NC(=O)C32CCOCC2)cc(C(=O)NCc2c(OC)cc(C)[nH]c2=O)c1C)C1CCN(C)CC1 [Example 1, 3-(ethyl(1-methylpiperidin-4-yl)amino)-N-((4-methoxy-6-methyl-2-oxo-1,2-dihydropyridin-3-yl)methyl)-2-methyl-5-(2-oxo-2′,3′,5′,6′-tetrahydrospiro[dihydroindole-3,4′-pyran]-6-yl)benzamide]	–	–
–	CCN(c1cc(-c2ccc3c(c2)CCC32CCN(CC(F)(F)F)CC2)cc(C(=O)NCc2c(OC)cc(C)[nH]c2=O)c1C)C1CCOCC1 [Example 36]	4.39	–
–	CCN(c1cc(-c2ccc3c(c2)CCC32CCN(CC(F)(F)C(F)(F)F)CC2)cc(C(=O)NCc2c(OC)cc(C)[nH]c2=O)c1C)C1CCOCC1 [Example 42]	2.6	–
2.1	CCN(c1cc(-c2ccc3c(c2)N(C(C)C)C(=O)C32CCOCC2)c(Cl)c(C(=O)NCc2c(OC)cc(C)[nH]c2=O)c1C)C1CCOCC1 [Example 52, 2-chloro-5-(ethyl(tetrahydro-2H-pyran-4-yl)amino)-3-(1-isopropyl-2-oxo-2′,3′,5′,6′-tetrahydrospiro[dihydroindole-3-1,4′-pyran]-6-yl)-N-((4-methoxy-6-methyl-2-oxo-1,2-dihydropyridin-3-yl)methyl)-6-methylbenzamide]	–	–
–	CCN(c1cc(-c2ccc3c(c2)N(C)CC32CCOCC2)cc(C(=O)NCc2c(C)cc(C)[nH]c2=O)c1C)C1CCOCC1 [Example 72, N-((4,6-dimethyl-2-oxo-1,2-dihydropyridin-3-yl)methyl)-3-(ethyl(tetrahydro-2H-pyran-4-yl)amino)-2-methyl-5-(1-methyl-2′,3′,5′,6′-tetrahydrospiro[dihydroindole-3,4′-pyran]-6-yl)benzamide]	–	inhibition in vivo at 150 mg/kg ([2]; Mus musculus, WSUDLCL2, po, 504 h, read-out: inhibited tumor growth): 85%; inhibitory effect on tumor growth ([3]; 125 mg/kg intragastrically twice a day for 21 days, combined with four positive control drugs (CHOP)): exceeded 98%; tumor disappearance ([3]; 125 mg/kg, combined with four positive control drugs (CHOP)): tumors in several mouse disappeared; inhibited tumor growth ([3]; 125 mg/kg, intragastrically, twice a day for 21 days): 83%
3.1	CCN(c1cc(-c2ccc3c(c2)N(C(C)=O)CC32CCOCC2)cc(C(=O)NCc2c(C)cc(C)[nH]c2=O)c1C)C1CCOCC1 [Example 74, 5-(1-acetyl-2′,3′,5′,6′-tetrahydrospiro[dihydroindole-3,4′-pyran]-6-yl)-N-((4,6-dimethyl-2-oxo-1,2-dihydropyridin-3-yl)methyl)-3-(ethyl(tetrahydro-2H-pyran-4-yl)amino)-2-methylbenzamide]	–	–
–	CC[C@H](C)n1cc(C)c2c(C(=O)NCc3c(C)cc(C)[nH]c3=O)cc(-c3ccc(N4CCNCC4)nc3)cc21 [GSK126, reference compound]	51.4	inhibited tumor growth [2, 4]: 61%; inhibited tumor growth [3, 4]: 58%

SMILES	IC50 ([1]; Homo sapiens, KARPAS-422) [nM]	IC50 [1] [nM]	other results
CCN(c1cc(-c2ccc3c(c2)C=CC32CCN(CC(F)(F)F)CC2)cc(C(=O)NCc2c(OC)cc(C)[nH]c2=O)c1C)C1CCOCC1 [Example 35, 3-(ethyl(tetrahydro-2H-pyran-4-yl)amino)-N-((4-methoxy-6-methyl-2-oxo-1,2-dihydropyridin-3-yl)methyl)-2-methyl-5-(1′-(2,2,2-trifluoroethyl)spiro[indene-1,4′-piperidine]-5-yl)benzamide]	3.5	–	–
CCN(c1cc(-c2ccc3c(c2)NC(=O)C32CCN(CC3CC3)CC2)cc(C(=O)NCc2c(C)cc(C)[nH]c2=O)c1C)C1CCOCC1 [Example 69, 5-(1′-(cyclopropylmethyl)-2-oxospiro[dihydroindole-3,4′-piperidine]-6-yl)-N-((4,6-dimethyl-2-oxo-1,2-dihydropyridin-3-yl)methyl)-3-(ethyl(tetrahydro-2H-pyran-4-yl)amino)-2-methylbenzamide]	1.36	–	–
